Literature values, collected in patent US20240082463A1, “COATED MEDICAL PRODUCT” (HEMOTEQ AG, priority 2020, published 2024).

Conditions: cited from earlier work

Question: Which logKOW (Table 3, rounded orientation values) does the source give for `c1ccccc1` [Benzene] here?
Answer: approx. 2.1

Question: And the logKOW (Table 4)?
Answer: 2.1

Like-named read-outs stand apart in the source and are kept apart here.
